{"source": "patent US20160250285A1", "about": "“NEUROPROTECTIVE PEPTIDES” (priority 2013, published 2016)", "key": {"[1]": {"test_system": "primary cortical neuronal cultures", "experimental": "Briefly, cortical tissue from E18-E19 Sprague-Dawley rats was dissociated in Dulbecco's modified Eagle medium (DMEM; Invitrogen, Australia) supplemented with 1.3 mM L-cysteine, 0.9 mM NaHCOa, 10 units/ml papain (Sigma, USA) and 50 units/ml DNase (Sigma) and washed in cold DMEM/10% horse serum. Neurons were resuspended in Neurobasal (Invitrogen) containing 2% B27 supplement (B27; Invitrogen). Before seeding, 96-well sized glass wells (6 mm diameter, ProTech, Australia) or 96-well plastic plates (ProSciTech, Australia) were coated with poly-D-lysine overnight ([…]: 50 mg/mL; 70-150 K, Sigma). […] Neurons were plated to obtain ≈10,000 viable neurons for each well on day in vitro 11-12. […] On day in vitro 4 one third of the culture medium was removed and replaced with fresh Neurobasal/2% B27 containing the mitotic inhibitor, cytosine arabinofuraNOside (1 mM final concentration; Sigma). On day in vitro 8 one half of the culture medium was replaced with Neurobasal/2% B27.\nTo induce excitotoxicity, 50 μl of Neurobasal/2% B27 containing glutamic acid (200 μM) or kainic acid (400 μM) or NMDA (200 μM) was added to the culture wells (100 μM glutamic acid, 200 μM kainic acid and NMDA 100 μM final concentration). Cultures were incubated at 37° C. in the CO2 incubator for 5 minutes for glutamic acid, 45 minutes for kainic acid and 10 minutes for NMDA exposure, after which time the media was replaced with 100 μl of 50% Neurobasal/2% N2 supplement (Invitrogen) and 50% balanced salt solution (BSS; see below). Cultures were incubated for a further 24 hours at 37° C. in the CO2 incubator. The untreated controls with or without glutamic acid or kainic acid treatment received the same wash steps and media additions.\nFollowing this step, cultures were treated as described above. Untreated controls with or without glutamic acid exposure received the same wash steps and media additions. In addition, a post-glutamic acid exposure CPP treatment (5 μM) experiment was performed for the R9 peptide and the JNKI-1D-TAT control peptide.\nFor pre-glutamic acid exposure experiments, neurons were exposed to peptide(s) for a 10 minute period, immediately before or 1, 2, 3, 4 or 5 hours prior to glutamic acid exposure. […] At the relevant peptide pre-treatment time, media was removed and replaced with 100 μl of Neurobasal/2%. […] Following 5-minute glutamic acid exposure, neuronal culture wells were treated as described above. For all experiments untreated controls with or without glutamic acid treatment underwent the same incubation steps and media additions.\nHeparin (for injection) was obtained from Pfizer (1000 IU/ml). Two different heparin experiments were performed: 1. Peptides were incubated with heparin (20 IU/ml) in Neurobasal/B27 for 5 minutes at room temperature, before addition to culture wells (50 μl) for 15 minutes at 37° C. in the CO2 incubator. Following the incubation period, media in wells was removed and replaced with 100 μl of Neurobasal/2% B27 containing glutamic acid (100 μM), and subsequently treated as described above; 2. Media in wells was replaced with Neurobasal/2% B27 containing heparin (50 μl; 40 IU/ml) and incubated for 5 minutes at 37° C. in the CO2 incubator. After the incubation period, peptides or glutamate receptor blockers (MK801/CNQX) in Neurobasal/2% B27 (50 μl) were added to the culture wells and cultures incubated for a further 10 minutes at 37° C. in the CO2 incubator. Following the incubation period, media in wells was removed and replaced with 100 μl of Neurobasal/2% B27 containing glutamic acid (100 μM), and subsequently treated as described above. For all experiments, non-heparin treated peptide controls with glutamic acid treatment underwent the same incubation steps and media additions.\nTwenty-four hours after insult, neuronal cultures were examined by light microscopy for qualitative assessment of neuronal cell viability."}, "[2]": {"test_system": "primary cortical neuronal cultures", "assay": "In vitro ischemia / oxygen-glucose deprivation (OGD) model, neurons", "format": "cell-based, rat"}, "[3]": {"test_system": "intracellular calcium influx in neuronal cultures", "assay": "Intracellular calcium influx (Fura-2 AM) after glutamic acid", "format": "cell-based, rat", "details": "peptide 5 μM for 10 min, removed before 100 μM glutamic acid (FIG. 44)"}}, "note": "Entries after “also recorded” stand apart in the source; their conditions may differ."}
{"smiles": "N=C(N)NCCC[C@H](NC(=O)[C@H](CCCNC(=N)N)NC(=O)[C@H](CCCNC(=N)N)NC(=O)[C@H](CCCNC(=N)N)NC(=O)[C@H](CCCNC(=N)N)NC(=O)[C@H](CCCNC(=N)N)NC(=O)[C@H](CCCNC(=N)N)NC(=O)[C@H](CCCNC(=N)N)NC(=O)[C@H](CCCNC(=N)N)NC(=O)[C@H](CCCNC(=N)N)NC(=O)[C@H](CCCNC(=N)N)NC(=O)[C@H](CCCNC(=N)N)NC(=O)[C@H](CCCNC(=N)N)NC(=O)[C@H](CCCNC(=N)N)NC(=O)[C@@H](N)CCCNC(=N)N)C(=O)O", "note": "[Peptide R15]", "values": [{"measurement": "IC50", "setting": "[1]", "value": 190, "unit": "nM"}, {"measurement": "neuroprotective efficacy at the higher concentration", "setting": "[1]; 5 μM, dose response study", "value": "reduced"}, {"measurement": "neuroprotection, peptide present during the 5 minute glutamic acid insult only", "setting": "[1]; FIG. 28", "value": "effective"}, {"measurement": "neuroprotection, 10 minute pre-exposure removed immediately prior to insult", "setting": "[1]; FIG. 29, FIG. 14", "value": "effective"}, {"measurement": "neuroprotection, peptide for 10 minutes, 1 to 4 hours prior to glutamic acid insult", "setting": "[1]; FIG. 30", "value": "effective"}, {"measurement": "effect of heparin on neuroprotective action", "setting": "[1]; heparin 20 IU/ml with peptide or 40 IU/ml on cultures (FIGS. 39, 40)", "value": "blocks neuroprotective actions"}, {"measurement": "neuroprotection (neuronal viability)", "setting": "[1]; peptide 15 min prior to and during glutamic acid exposure, viability 24 h, MTS", "value": "showed significant neuroprotection"}, {"measurement": "efficacy at higher concentrations, added post-in vitro ischemia", "setting": "[2]; FIG. 3b", "value": "reduced efficacy"}, {"measurement": "neuroprotection when added for 15 minutes after OGD", "setting": "[2]; FIGS. 31, 20, 22, 1 μM and 5 μM in FIG. 31", "value": "Neuroprotection is displayed"}, {"measurement": "neuroprotection when added post-in vitro ischemia/OGD", "setting": "[2]; added after anaerobic incubation until experiment end (FIGS. 3b, 16, 17)", "value": "displayed neuroprotective effects; also recorded: effective"}, {"measurement": "calcium influx after glutamic acid", "setting": "[3]", "value": "to varying degrees reduced calcium influx"}]}
